Test results as given in patent publication US7094593B1, “Method for improving the function of heterologous G protein-coupled receptors” (priority 1998, dated 2006).

Protein sequences, listed by entry. Tags and fused reporters are not part of them.
UniProt P08483, whole entry: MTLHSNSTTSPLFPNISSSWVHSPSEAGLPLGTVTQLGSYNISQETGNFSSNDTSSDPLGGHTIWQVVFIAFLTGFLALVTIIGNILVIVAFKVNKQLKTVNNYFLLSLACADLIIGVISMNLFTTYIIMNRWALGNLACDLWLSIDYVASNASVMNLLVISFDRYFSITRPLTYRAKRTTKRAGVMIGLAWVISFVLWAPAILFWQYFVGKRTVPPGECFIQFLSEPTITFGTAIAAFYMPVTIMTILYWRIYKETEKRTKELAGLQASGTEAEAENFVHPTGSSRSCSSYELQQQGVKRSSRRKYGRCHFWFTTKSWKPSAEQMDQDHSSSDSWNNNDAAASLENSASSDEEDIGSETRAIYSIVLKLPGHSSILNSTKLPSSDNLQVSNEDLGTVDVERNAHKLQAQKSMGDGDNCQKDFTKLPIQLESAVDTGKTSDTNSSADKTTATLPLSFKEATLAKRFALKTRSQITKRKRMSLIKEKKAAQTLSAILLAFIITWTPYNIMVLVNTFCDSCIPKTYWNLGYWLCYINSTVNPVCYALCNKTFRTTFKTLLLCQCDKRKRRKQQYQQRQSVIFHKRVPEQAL

Biological target: wild type rat M3 MAR (Rattus norvegicus, UniProt P08483)
Settings: yeast cells containing wild type M3 MAR

## C[N+](C)(C)CCOC(N)=O [carbachol]
  agonist-dependent yeast cell growth: lack of agonist-dependent yeast cell growth
